# Bioassay records: PubChem BioAssay, several laboratories
# Shown are actives, neighbours in structure and some others; about 1.5% of the full set was active somewhere.
# DSG3 Ab inh: inhibitors of pemphigus antibody binding to human desmoglein-3; DSG3-coupled beads, scFv-anti-DSG3-GFP binding, flow cytometry; stronger effect = lower value; binding (percent of control), % at 10 µM; P32926; 0.48% of 310,000 active; AID 588358;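 active means binding more than 3 SD below its plate's average and above zero; inconclusive means below that plate limit but binding exactly zero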;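 further: hits lower antibody fragment binding to DSG3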
# MLLE-PAM2 inh: inhibitors of microRNA-mediated deadenylation, human PABP1 MLLE binding. AID 588489. 0.36% of 360,000 active. inhibition, % at 20 µM. GST-MLLE / FITC-PAM2 fluorescence polarization; in the data active means inhibition above about 35%, passing the limit was not always enough
# Yeast UUG start: modulators of yeast start codon fidelity, primary screen, whole organism, S. cerevisiae, single point, plate reader; S. cerevisiae UUG-firefly luciferase reporter, luminescence/redox ratio; activity score, % at 18.7 µM; 0.13% of 350,000 active; AID 602363, 2012;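 active = replicate mean at a twofold rise or more, about +100% in these data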;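 also: firefly luciferase made from a UUG start codon reports start codon fidelity; reporter light over untreated wells divided by growth signal over untreated wells; some hits fall short of that in this replicate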
# PABP polyA inh: blocks human PABP binding to poly(A) RNA; AID 2014; 1% of 290,000 active; P11940; calls only at 35 µM; fluorescence polarization;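 further: calls also rest on retests at 20 µM and on dose response follow-up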
# eIF4H FP inh: inhibitors of RNA binding by human eIF4H; Q15056; eIF4H fluorescence polarization binding assay; inhibition, % at 35 µM; 0.94% of 290,000 active; AID 2012;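 further: calls also rest on retests at 20 µM and on dose response follow-up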
# Numbers stand for hits; n = inactive; u = inconclusive; x = not tested or not shown; + = active, no number. Unless noted, how the calls were made is not given here.
SMILES,DSG3 Ab inh,MLLE-PAM2 inh,Yeast UUG start,PABP polyA inh,eIF4H FP inh
COc1ccc(C(=O)CSc2ncnc3nc[nH]c23)cc1,88,n,n,n,n
Cc1cccc(NC(=O)CSc2ncnc3nc[nH]c23)c1C,37,n,n,n,n
COc1ccc(CNC(=O)CSc2ncnc3nc[nH]c23)cc1,n,n,n,n,n
CCC(C)NC(=O)NC(=O)CSc1nnc(-c2ccccc2F)n1C1CC1 (configuration not stated),x,n,n,n,n
CCC(=O)Nc1ccc(C(=O)CSc2nnc(-c3ccccc3F)n2C2CC2)cc1,n,n,x,n,73
Cc1ccccc1NC(=O)CSc1nnc(-c2ccco2)c(-c2ccco2)n1,n,n,n,+,99
Cc1ccccc1NC(=O)CSc1n[nH]c(-c2ccco2)n1,n,n,n,n,n
Cc1cccc(C)c1NC(=O)CCCSc1nnc(-c2ccco2)o1,n,n,n,x,x
Cc1cccc(C)c1NC(=O)CSc1nnc(-c2ccco2)c(-c2ccco2)n1,n,n,n,+,100
C[C@@H]1CN([C@@H](C)CO)C(=O)c2cccc(NC(=O)c3ccncc3)c2O[C@@H]1CN(C)C(=O)Nc1ccc2c(c1)OCO2,x,x,n,x,x
COc1ccc(CN(C)C(=O)c2sccc2-c2ccccc2)c(OC)c1,n,n,n,n,n
CN(Cc1ccc(F)cc1)C(=O)c1sccc1-c1ccccc1,n,n,n,+,n
C[C@@H]1CCCCO[C@@H](CN(C)C(=O)Nc2ccc(C(F)(F)F)cc2)[C@H](C)CN([C@@H](C)CO)C(=O)c2cc(NS(=O)(=O)c3cn(C)cn3)ccc2O1,x,x,n,x,x
O=C(C[n+]1ccccc1)c1ccc(NC(=O)c2ccccc2)cc1,n,n,n,+,n
Cc1cc[n+](CC(=O)c2ccc(NC(=O)c3ccccc3)cc2)cc1,n,n,x,n,n
O=C(COC(=O)CCc1c[nH]c(=O)[nH]1)Nc1cccc(Cl)c1,n,39,n,n,n
CN1CCN(Cc2nc3ccccc3c(=O)n2Cc2nc(-c3ccc([N+](=O)[O-])cc3)cs2)CC1,-160,n,x,n,n
Cc1ccc(Oc2ccc(Cl)cc2NC(=O)c2cnccn2)cc1,79,n,n,n,n
C[C@H](NS(=O)(=O)c1ccc2c(c1)OCCCO2)C(=O)N1CCN(c2ccc(F)cc2)CC1,n,41,n,x,x
O=C(O)CCCC(=O)Nc1ccc(N2CCCC2)cc1,n,n,n,n,69
CCCC(=O)Nc1ccc(N2CCCCC2)cc1,x,n,n,n,n
O=C(O)CCCNc1cc(N2CCC3(CC2)OCCO3)c2noc3c2c1C(=O)c1ccccc1-3,x,x,x,+,115
O=[N+]([O-])c1c(NCCO)cc(N2CCC3(CC2)OCCO3)c2nonc12,n,n,n,n,n
CCOC(=O)N1CCN(c2cc(NCCC(=O)O)c3c4c(onc24)-c2ccccc2C3=O)CC1,n,n,n,+,86
O=C(O)CCNc1ccc(NCCC(=O)O)c2c1C(=O)c1ccccc1C2=O,n,n,x,u,u
SMILES,DSG3 Ab inh,MLLE-PAM2 inh,Yeast UUG start,PABP polyA inh,eIF4H FP inh
COc1ccc(S(=O)(=O)Nc2ccc3c(c2)C(=O)N([C@H](C)CO)C[C@H](C)[C@@H](CN(C)Cc2ccc4c(c2)OCO4)OCCCC[C@@H](C)O3)cc1,x,x,n,x,x
O=C(O)C/C(=C\c1cc(Cl)c2c(c1)OCO2)c1nc2ccccc2s1,n,n,n,n,94
O=C(O)CC/C(=C\c1cc([N+](=O)[O-])ccc1Cl)c1nc2ccccc2s1,n,n,x,n,n
O=C(O)C/C(=C\c1ccc2c(c1)OCO2)c1nc2ccccc2s1,n,n,n,n,n
O=C(O)CC/C(=C\c1cccc(NC(=O)c2ccccc2Cl)c1)c1nc2ccccc2s1,n,n,n,+,58
O=C(NC(NC(=S)Nc1c(Cl)cc(Cl)cc1Cl)C(Cl)(Cl)Cl)OCc1ccccc1 (configuration not stated),n,39,n,n,n
COc1ccc(-n2cnnc2SCC(=O)Nc2cc(C)on2)cc1,n,n,x,+,63
COc1ccc(-n2c(SCC(=O)Nc3cc(C)on3)nc3c([nH]c4ccccc43)c2=O)cc1,-8.2,n,n,n,n
COc1cccc(-c2cnc3c(c2)C(=O)N([C@@H](C)CO)C[C@@H](C)[C@H](CN(C)Cc2ccc(C(=O)O)cc2)O3)c1,x,x,n,x,x
CC1C2(C)OC(=N)C(C#N)(C(C)O2)C1(C#N)C#N (configuration not stated),n,64,x,n,n
O=C(COc1ccccc1)Nc1nc(-c2ccncc2)cs1,n,35,n,n,n
O=C(COc1ccccc1)Nc1nc(-c2cccnc2)cs1,x,n,n,x,x
